Earlier results as cited in US11766068B1, “Method of treating smokeless tobacco” (Altria Client Services LLC, priority 2009, dated 2023).

Details: cited from earlier work

## Tocopheryl polyethylene glycol succinate
  solubility (water): 200 mg/mL
